The test system of test [1] is U-251. The test can be described thus: Inhibition of cell proliferation of human U251 cells assessed as cell viability after 72 hrs by sulforhodamine B assay. Type of test: functional, cell-based. Background: Sulforhodamine B stains cellular protein and so reports cell mass.
Test [2] relates to C6. The test can be described thus: Inhibition of cell proliferation of rat C6 cells assessed as cell viability after 72 hrs by sulforhodamine B assay. It counts as functional, cell-based.

Regarding `CC(=O)Oc1ccc(CCOC(=O)CCc2ccc(OC(C)=O)c(OC(C)=O)c2)cc1OC(C)=O`, the inhibition entry in test [1] and in test [2] was “Dose-dependent effect” in each case.
As for `C=CC(C)(O)CC/C=C(\CO)C(=O)O[C@H]1[C@H](O)[C@@H](COC(=O)/C(C)=C/CC[C@](C)(O)C=C)O[C@@H](OC(=O)[C@]23CCC(C)(C)C[C@H]2C2=CC[C@@H]4[C@@]5(C)CC[C@H](O[C@@H]6O[C@H](CO[C@@H]7OC[C@H](O)[C@H](O)[C@H]7O[C@@H]7OC[C@@H](O)[C@H](O)[C@H]7O)[C@@H](O)[C@H](O)[C@H]6O)C(C)(C)[C@@H]5CC[C@@]4(C)[C@]2(C)CC3)[C@@H]1O[C@@H]1O[C@@H](C)[C@H](O[C@@H]2OC[C@@H](O)[C@H](O[C@@H]3OC[C@@H](O)[C@H](O)[C@H]3O)[C@H]2O)[C@@H](O)[C@H]1O` (some centres undefined), the inhibition entry in test [1] and in test [2] was “Dose-dependent effect” each time.
As to `CC(=O)Oc1cc(CCOC(=O)CCc2ccc(O)c(OC(C)=O)c2)ccc1O`, the inhibition result in test [1] and in test [2] was “Dose-dependent effect” in each case.
Turning to `C=C[C@@](C)(O)CC/C=C(\C)C(=O)OC[C@H]1O[C@@H](OC(=O)[C@]23CCC(C)(C)C[C@H]2C2=CC[C@@H]4[C@@]5(C)CC[C@H](O[C@@H]6O[C@H](CO[C@@H]7OC[C@H](O)[C@H](O)[C@H]7O[C@@H]7OC[C@@H](O)[C@H](O)[C@H]7O)[C@@H](O)[C@H](O)[C@H]6O)C(C)(C)[C@@H]5CC[C@@]4(C)[C@]2(C)CC3)[C@H](O[C@@H]2O[C@@H](C)[C@H](O[C@@H]3OC[C@@H](O)[C@H](O[C@@H]4OC[C@@H](O)[C@H](O)[C@H]4O)[C@H]3O)[C@@H](O)[C@H]2O)[C@@H](O)[C@@H]1O`, the inhibition entry in test [1] and in test [2] was “Dose-dependent effect” each time.
Turning to `CC(C)=CCC[C@@H](C)[C@H]1CC[C@]2(C)[C@@H]1[C@H](O)C[C@@H]1[C@@]3(C)CC[C@H](O)C(C)(C)[C@@H]3[C@@H](O)C[C@]12C`, the inhibition entry in test [1] and in test [2] was “Dose-dependent effect” each time.
With `C=CC(C)(O)CC/C=C(\CO)C(=O)OC[C@H]1O[C@@H](OC(=O)[C@]23CCC(C)(C)C[C@H]2C2=CC[C@@H]4[C@@]5(C)CC[C@H](O[C@@H]6O[C@H](CO[C@@H]7OC[C@H](O)[C@H](O)[C@H]7O[C@@H]7OC[C@@H](O)[C@H](O)[C@H]7O)[C@@H](O)[C@H](O)[C@H]6O)C(C)(C)[C@@H]5CC[C@@]4(C)[C@]2(C)CC3)[C@H](O[C@@H]2O[C@@H](C)[C@H](O[C@@H]3OC[C@@H](O)[C@H](O[C@@H]4OC[C@@H](O)[C@H](O)[C@H]4O)[C@H]3O)[C@@H](O)[C@H]2O)[C@@H](O)[C@@H]1O` (some centres undefined), the inhibition entry in test [1] and in test [2] was “Dose-dependent effect” each time.
For `O=c1c(O)c(-c2ccc(O)c(O)c2)oc2cc(O)cc(O)c12` [QUERCETIN], the inhibition entry in test [1] and in test [2] was “Dose-dependent effect” in each case.
In the case of `COc1cc(CCC(=O)OCCc2ccc(O)c(O)c2)ccc1O`, the inhibition entry in test [1] and in test [2] was “Dose-dependent effect” each time.
Turning to `C=C[C@@](C)(O)CC/C=C(\CO)C(=O)OC[C@H]1O[C@@H](OC(=O)[C@]23CCC(C)(C)C[C@H]2C2=CC[C@@H]4[C@@]5(C)CC[C@H](O[C@@H]6O[C@H](CO[C@@H]7OC[C@H](O)[C@H](O)[C@H]7O[C@@H]7OC[C@@H](O)[C@H](O)[C@H]7O)[C@@H](O)[C@H](O)[C@H]6O)C(C)(C)[C@@H]5CC[C@@]4(C)[C@]2(C)C[C@H]3O)[C@H](O[C@@H]2O[C@@H](C)[C@H](O[C@@H]3OC[C@@H](O)[C@H](O[C@@H]4OC[C@@H](O)[C@H](O)[C@H]4O)[C@H]3O)[C@@H](O)[C@H]2O[C@@H]2O[C@H](CO)[C@H](O)[C@H](O)[C@H]2O)[C@@H](O)[C@@H]1O`, the inhibition result in test [1] and in test [2] was “Dose-dependent effect” each time.
As for `O=C(CCc1ccc(O)c(O)c1)OCCc1ccc(O)c(O)c1`, the inhibition result in test [1] and in test [2] was “Dose-dependent effect” throughout.
Take `Cn1nnc2c(C(N)=O)ncn2c1=O` [TEMOZOLOMIDE]: the inhibition entry in test [1] and in test [2] was “Dose-dependent effect” in each case.
`C/C=C(\C)C(=O)O[C@H]1[C@H](O)[C@]2(COC(C)=O)[C@H](O)C[C@]3(C)C(=CC[C@@H]4[C@@]5(C)CC[C@H](O[C@@H]6O[C@H](C(=O)O)[C@@H](O[C@@H]7O[C@H](CO)[C@@H](O)[C@H](O)[C@H]7O)[C@H](O)[C@H]6O[C@@H]6O[C@H](CO)[C@@H](O)[C@H](O)[C@H]6O)[C@](C)(CO)[C@@H]5CC[C@]43C)[C@@H]2CC1(C)C` [ISOESCIN IA]: the inhibition result in test [1] and in test [2] was “Dose-dependent effect” in each case.
Regarding `C/C=C(/C)C(=O)O[C@H]1[C@H](O)[C@]2(COC(C)=O)[C@H](O)C[C@]3(C)C(=CC[C@@H]4[C@@]5(C)CC[C@H](O[C@@H]6O[C@H](C(=O)O)[C@@H](O[C@@H]7O[C@H](CO)[C@@H](O)[C@H](O)[C@H]7O)[C@H](O)[C@H]6O[C@@H]6O[C@H](CO)[C@@H](O)[C@H](O)[C@H]6O)[C@](C)(CO)[C@@H]5CC[C@]43C)[C@@H]2CC1(C)C` [ISOESCIN IB], the inhibition result in test [1] and in test [2] was “Dose-dependent effect” throughout.
On to `C/C=C(\C)C(=O)O[C@H]1[C@H](O)[C@]2(COC(C)=O)[C@H](O)C[C@]3(C)C(=CC[C@@H]4[C@@]5(C)CC[C@H](O[C@@H]6O[C@H](C(=O)OC)[C@@H](O[C@@H]7O[C@H](CO)[C@@H](O)[C@H](O)[C@H]7O)[C@H](O)[C@H]6O[C@@H]6O[C@H](CO)[C@@H](O)[C@H](O)[C@H]6O)[C@](C)(CO)[C@@H]5CC[C@]43C)[C@@H]2CC1(C)C`, for which the inhibition result in test [1] and in test [2] was “Dose-dependent effect” throughout.
In the case of `C=CC(C)(O)CC/C=C(\CO)C(=O)O[C@H]1[C@H](OC[C@H]2O[C@@H](OC(=O)[C@]34CCC(C)(C)C[C@H]3C3=CC[C@@H]5[C@@]6(C)CC[C@H](O[C@@H]7O[C@H](CO[C@@H]8OC[C@H](O)[C@H](O)[C@H]8O[C@@H]8OC[C@@H](O)[C@H](O)[C@H]8O)[C@@H](O)[C@H](O)[C@H]7O)C(C)(C)[C@@H]6CC[C@@]5(C)[C@]3(C)C[C@H]4O)[C@H](O[C@@H]3O[C@@H](C)[C@H](O[C@@H]4OC[C@@H](O)[C@H](O[C@@H]5OC[C@@H](O)[C@H](O)[C@H]5O)[C@H]4O)[C@@H](O)[C@H]3O)[C@@H](O)[C@@H]2O)O[C@@H](C)[C@H](O)[C@H]1OC(=O)/C(C)=C/CC[C@@](C)(O)C=C` (some centres undefined), the inhibition result in test [1] and in test [2] was “Dose-dependent effect” throughout.
Consider `C/C=C(/C)C(=O)O[C@H]1[C@H](O)[C@]2(COC(C)=O)[C@H](O)C[C@]3(C)C(=CC[C@@H]4[C@@]5(C)CC[C@H](O[C@@H]6O[C@H](C(=O)OC)[C@@H](O[C@@H]7O[C@H](CO)[C@@H](O)[C@H](O)[C@H]7O)[C@H](O)[C@H]6O[C@@H]6O[C@H](CO)[C@@H](O)[C@H](O)[C@H]6O)[C@](C)(CO)[C@@H]5CC[C@]43C)[C@@H]2CC1(C)C`, for which the inhibition entry in test [1] and in test [2] was “Dose-dependent effect” throughout.
In the case of `C=C[C@@](C)(O)CC/C=C(\C)C(=O)O[C@H]1[C@H](OC[C@H]2O[C@@H](OC(=O)[C@]34CCC(C)(C)C[C@@H]3C3=CC[C@@H]5[C@@]6(C)CC[C@H](O[C@@H]7O[C@H](CO[C@@H]8OC[C@H](O)[C@H](O)[C@H]8O[C@@H]8OC[C@@H](O)[C@H](O)[C@H]8O)[C@@H](O)[C@H](O)[C@H]7O)C(C)(C)[C@@H]6CC[C@@]5(C)[C@]3(C)C[C@H]4O)[C@H](O[C@@H]3O[C@@H](C)[C@H](O[C@@H]4OC[C@@H](O)[C@H](O[C@@H]5OC[C@@H](O)[C@H](O)[C@H]5O)[C@H]4O)[C@@H](O)[C@H]3O)[C@@H](O)[C@@H]2O)O[C@@H](C)[C@H](O)[C@H]1OC(=O)/C(=C/CC[C@](C)(O)C=C)CO` [GLEDITSIA SAPONIN C], the inhibition result in test [1] and in test [2] was “Dose-dependent effect” each time.

Source of the values: ChEMBL document CHEMBL3351906, “Bioactive triterpenoid saponins and phenolic compounds against glioma cells” (Bioorg Med Chem Lett, 2014).
